Reference: patent US6096909A, “Taxoid anti-tumor agents and pharmaceutical compositions thereof” (The Research Foundation of State University of New York, priority 1997, dated 2000)
pIC50: −log10 of the molar value.

Legend:
[1] = system: multi-drug resistant phenotype human colon carcinoma cells HCT-116/VM; conditions: cited from earlier work
[2] = system: MCF7-R (mammary carcinoma cells 180-fold resistant to adriamycin); assay: Tumor cell growth inhibition (SRB), 72 h; format: cell-based, human

Structure (SMILES): CC(=O)O[C@H]1C(=O)[C@@]2(C)[C@H]([C@H](OC(=O)c3ccccc3)[C@]3(O)C[C@H](OC(=O)[C@H](O)[C@H](C=C(C)C)NC(=O)c4ccccc4)C(C)=C1C3(C)C)[C@]1(OC(C)=O)CO[C@@H]1C[C@@H]2O [RAH-1, 3'-dephenyl-3'-isobutenylpaclitaxel]
- times better activity than docetaxel ([1]; relative to docetaxel): 9 times
- times better activity than paclitaxel ([1]; relative to paclitaxel): about 20 times
- activity ([2]; in words): only marginal activity
- pIC50 ([2]; read-out: concentration of compound which inhibit 50% (IC50) of the growth of human tumor cell line, 72 h drug exposure, mean of at least three experiments): 6.95
- activity compared with Taxoid Ia ([2]; relative to Taxoid Ia): one order of magnitude weaker
